Tests used:
HER2 mutant lung cancers = test system: HER2 mutant lung cancers
Excerpt: Patients with stage 4 or recurrent HER2 mutant lung cancers were enrolled in the cohort, as illustrated in the basket trial scheme in FIG. 1. Other cohorts of this basket trial included HER2 amplified lung, bladder and other solid tumors, as illustrated by FIG. 1. HER2 mutations were identified through next generation sequencing (NGS) including exon 20 insYVMA, insGSP, insTGT, single base pair substitutions L755A, L755S, V777L, V659E, S310F or other likely activating mutations. Other inclusion criteria included age (≥18 years old), Karnofsky performance status (≥70%), measurable disease by Response Evaluation Criteria in Solid Tumors (RECIST) v1.1, and adequate left ventricular, bone marrow, and hepatic function.
Physical examination and safety assessments were performed every 3 weeks. Tumor assessments using contrast enhanced computed tomography of the chest, abdomen, and pelvis were performed at baseline, week 6, week 12, and every 12 weeks thereafter until disease progression was observed. Brain imaging was not routinely performed unless clinically indicated. Left ventricular ejection fraction measurements by echocardiography or multi-gated acquisition scan were performed at baseline then every 3 months. […] Secondary objectives included assessment of progression-free survival (PFS) and toxicity according to the National Cancer Institute Common Terminology Criteria for Adverse Events version 4.1 (NCI CTCAE v4.1). The molecular associations between HER2 mutations, HER2 amplification and HER2 protein expression were examined using different molecular diagnostic assays whenever archival tissue was available. NGS assessed for HER2 mutation and amplification, fluorescence in situ hybridization (FISH) assessed for HER2 amplification, and HER2 protein overexpression was assessed by immunohistochemistry (IHC) and quantitative mass spectrometry. FISH was performed using FDA approved probe sets (PathVysion, Abbott Molecular, Chicago, Ill. and HER2 IQFISH pharmDx, Agilent, Santa Clara, Calif.) and positive HER2 amplification was defined as HER2/CEP17 ratio ≥2.0. HER2 protein by IHC was assessed using the 4B5 Ventana antibody (Ventana Medical Systems, Oro Valley Ariz.). Quantitative HER2 protein by selected reaction monitoring mass spectrometry on fixed-formalin paraffin-embedded tissue was performed using methods previously validated in breast cancers, with ≥740 amol/ug as the cutoff for high HER2 expression (see Nuciforo P., et al., Mol. Oncol., 10:138-147 (2016)).
Target accrual was a minimum of 7 patients (stage 1) and maximum of 18 patients (stage 1 and 2) in each cohort. The primary endpoint was best confirmed overall response rate (ORR) per RECIST v1.1. The Simon's optimal two-stage design was employed with a multiple testing adjusted type I error rate for each cohort. For a targeted agent where higher response rates were expected, a true ORR of ≤10% was considered unacceptable (null hypothesis), whereas a true ORR of ≥40% merited further study (alternative hypothesis). In the first stage, 7 patients were accrued; if there were no responses observed at interim analysis of the 7 patients in a particular cohort, the cohort was closed. Otherwise, 11 additional patients were accrued for a total of 18 patients.

[1] = test system: HER2 amplified breast cancers; settings: FDA label; cited from earlier work

With ado-trastuzumab emtansine the “infusion reactions (grade 1 or 2)” value (HER2 mutant lung cancers; 5 of 18 patients, mild rigors, chills, pruritis, wheezing) was 28%, the “deaths or grade 4 toxicities on study” value (HER2 mutant lung cancers; NCI CTCAE v4.1) was “no deaths or grade 4 toxicities” and the “dose reductions or discontinuations as a result of treatment-related adverse effects” value (HER2 mutant lung cancers; in vivo) was “no dose reductions or discontinuations”. For the same substance, the tolerability (HER2 mutant lung cancers; in vivo) was “well tolerated”, the “severity of treatment-related adverse events” value (HER2 mutant lung cancers; infusion reactions, thrombocytopenia, elevations of hepatic transaminases) was “mainly grade 1 or 2 events” and the “response among patients with positive FLIM-FRET for HER2-HER3 heterodimer” value (HER2 mutant lung cancers; three HER2-mutant lung cancer patients tested) was “one of them had a partial response”. For the same substance, the “rate of grade 1 or 2 infusion reactions” value [1] was 1%.
